Reference: patent US8952177B2 (Janssen Pharmaceutica NV, priority 2013, dated 2015)
Counter-ions that a name gives are not always drawn.

Amino acid sequences for entries named in this document (tags omitted). A change or cut given only in a name is not applied to a line headed by its entry.
UniProt P20292: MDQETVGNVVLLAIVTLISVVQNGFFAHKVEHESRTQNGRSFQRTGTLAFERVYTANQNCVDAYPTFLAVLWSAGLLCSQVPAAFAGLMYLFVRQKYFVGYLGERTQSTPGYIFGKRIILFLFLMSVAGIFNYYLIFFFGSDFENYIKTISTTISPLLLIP

What follows are compounds tested against human FLAP (Homo sapiens (Human), UniProt P20292) (assay: FLAP binding assay (HTRF format)). Settings: human FLAP-containing Sf-9 membranes, 25 nM HTRF ligand, 2 h; average of runs; read-out: FLAP Binding wild type HTRF Ki.

Compound	Ki
Cc1ccc(COc2ccc3nc([C@@H]4[C@H](C(=O)O)C4(C)C)n(Cc4ccc(OC(F)(F)F)cc4)c3c2)nc1 (racemic) [Example 25]	61 nM
Cc1ccc(COc2cc(F)c3nc(C4[C@H](C(=O)O)C4(C)C)n(Cc4ccc(OC(F)(F)F)cc4)c3c2)nc1 (mixture of isomers) [Example 74, racemic cis-3-{4-Fluoro-6-[(5-methylpyridin-2-yl)methoxy]-1-[4-(trifluoromethoxy)benzyl]-1H-benzimidazol-2-yl}-2,2-dimethylcyclopropanecarboxylic acid as the TFA salt]	75 nM
CCC(CC)(Cc1nc2ccc(OCc3ccn(C)n3)cc2n1Cc1ccc(OC(F)(F)F)c(F)c1)C(=O)O [Example 57, 2-Ethyl-2-({1-[3-fluoro-4-(trifluoromethoxy)benzyl]-6-[(1-methyl-1H-pyrazol-3-yl)methoxy]-1H-benzimidazol-2-yl}methyl)butanoic acid]	45 nM
Cc1ccc(COc2ccc3nc([C@@H]4CCCC[C@@H]4C(=O)O)n(Cc4ccc(N5CC(F)(F)C5)cc4)c3c2)nc1 (relative stereo) [Example 160, (1S*,2R*)-2-{1-[4-(3,3-Difluoroazetidin-1-yl)benzyl]-6-[(5-methylpyridin-2-yl)methoxy]-1H-benzimidazol-2-yl}cyclohexanecarboxylic acid]	3.8 nM
Cc1cnc(COc2ccc3nc(CC(C)(C)C(=O)O)n(Cc4ccc(Br)cc4F)c3c2)c(F)c1 [Example 129, 3-{1-(4-Bromo-2-fluorobenzyl)-6-[(3-fluoro-5-methylpyridin-2-yl)methoxy]-1H-benzimidazol-2-yl}-2,2-dimethylpropanoic acid]	14 nM
Cc1ccc(COc2ccc3nc(C4CCCC[C@H]4C(=O)O)n(Cc4ccc(N5CC(F)(F)C5)cc4)c3c2)nc1 (mixture of isomers) [Example 159, racemic cis-2-{1-[4-(3,3-Difluoroazetidin-1-yl)benzyl]-6-[(5-methylpyridin-2-yl)methoxy]-1H-benzimidazol-2-yl}cyclohexanecarboxylic acid]	7.2 nM
Cc1ccc(Cn2c(C3CCCC[C@@H]3C(=O)O)nc3c(F)cc(OCc4ccc(C)cn4)cc32)cc1 (mixture of isomers) [Example 70, racemic trans-2-{4-Fluoro-1-(4-methylbenzyl)-6-[(5-methylpyridin-2-yl)methoxy]-1H-benzimidazol-2-yl}cyclohexanecarboxylic acid as the TFA salt]	47 nM
Cc1ccc(COc2cc(F)c3nc(CC(C)(C)C(=O)O)n(Cc4ccc(Br)cc4)c3c2)nc1 [Example 60, 3-{1-(4-Bromobenzyl)-4-fluoro-6-[(5-methylpyridin-2-yl)methoxy]-1H-benzimidazol-2-yl}-2,2-dimethylpropanoic acid]	51 nM
Cc1ccc(COc2ccc3nc([C@H]4CCCC[C@@H]4C(=O)O)n(Cc4ccc(N5CC(F)(F)C5)cc4F)c3c2)nc1 (racemic) [Example 171]	13 nM
Cc1ccc(COc2ccc3nc(C4CCCC[C@H]4C(=O)O)n(Cc4ccc(N5CCCC(F)(F)C5)cc4)c3c2)nc1 (mixture of isomers) [Example 153, racemic cis-2-{1-[4-(3,3-Difluoropiperidin-1-yl)benzyl]-6-[(5-methylpyridin-2-yl)methoxy]-1H-benzimidazol-2-yl}cyclohexanecarboxylic acid]	4.4 nM
Cc1ccc(COc2ccc3nc(CC(C)(C)C(=O)O)n(Cc4ccc(Br)cc4)c3c2)nc1 [Example 118, 3-{1-(4-Bromobenzyl)-6-[(5-methylpyridin-2-yl)methoxy]-1H-benzimidazol-2-yl}-2,2-dimethylpropanoic acid as the TFA salt]	130 nM
Cc1ccc(COc2ccc3nc([C@H]4CCCC[C@H]4C(=O)O)n(Cc4c(F)cc(Br)cc4F)c3c2)nc1 (racemic) [Example 126, racemic cis-2-{1-(4-Bromo-2,6-difluorobenzyl)-6-[(5-methylpyridin-2-yl)methoxy]-1H-benzimidazol-2-yl}cyclohexanecarboxylic acid]	1.1 nM
Cc1ccc(Cn2c([C@@H]3CCCC[C@@H]3C(=O)O)nc3ccc(OCc4ccc(C)cn4)cc32)cc1 (racemic) [Example 119, racemic cis-2-{1-(4-Methylbenzyl)-6-[(5-methylpyridin-2-yl)methoxy]-1H-benzimidazol-2-yl}cyclohexanecarboxylic acid]	6.6 nM
Cc1ccc(COc2ccc3nc([C@H]4[C@@H](C(=O)O)C4(C)C)n(Cc4ccc(Br)cc4F)c3c2)nc1 (stereo in doubt) [Example 16, (1S*,3R*)-3-{1-(4-Bromo-2-fluorobenzyl)-6-[(5-methylpyridin-2-yl)methoxy]-1H-benzimidazol-2-yl}-2,2-dimethylcyclopropanecarboxylic acid]	23 nM
Cn1ccc(COc2ccc3nc([C@@H]4CCCC[C@@H]4C(=O)O)n(Cc4ccc(N5CCCCC5)cc4)c3c2)n1 (racemic) [Example 88, racemic cis-2-{6-[(1-Methyl-1H-pyrazol-3-yl)methoxy]-1-(4-piperidin-1-ylbenzyl)-1H-benzimidazol-2-yl}cyclohexanecarboxylic acid]	32 nM
Cc1ccc(COc2ccc3nc(C4CCCC[C@@H]4C(=O)O)n(Cc4ccc(Br)cc4)c3c2)nc1 (mixture of isomers) [Example 1, racemic cis-2-{1-(4-Bromobenzyl)-6-[(5-methylpyridin-2-yl)methoxy]-1H-benzimidazol-2-yl}cyclohexanecarboxylic acid]	3.8 nM
Cc1cnc(COc2ccc3nc(CC(C)(C)C(=O)O)n(Cc4ccc(N5CCC(C)CC5)cc4)c3c2)c(F)c1 [Example 185, 3-{6-[(3-Fluoro-5-methylpyridin-2-yl)methoxy]-1-[4-(4-methylpiperidin-1-yl)benzyl]-1H-benzimidazol-2-yl}-2,2-dimethylpropanoic acid]	25 nM
Cc1cnc(COc2ccc3nc([C@@H]4CCCC[C@@H]4C(=O)O)n(Cc4ccc(N5CCCCC5)cc4)c3c2)c(F)c1 (racemic) [Example 179, racemic cis-2-{6-[(3-Fluoro-5-methylpyridin-2-yl)methoxy]-1-(4-piperidin-1-ylbenzyl)-1H-benzimidazol-2-yl}cyclohexanecarboxylic acid]	1.3 nM
Cn1ccc(COc2ccc3nc([C@@H]4CCCC[C@@H]4C(=O)O)n(Cc4ccc(OC(F)(F)F)c(F)c4)c3c2)n1 (racemic) [Example 55, racemic cis-2-{1-[3-Fluoro-4-(trifluoromethoxy)benzyl]-6-[(1-methyl-1H-pyrazol-3-yl)methoxy]-1H-benzimidazol-2-yl}cyclohexanecarboxylic acid]	12 nM
Cc1ccc(COc2ccc3nc(C4CCCC[C@H]4C(=O)O)n(Cc4ccc(Br)c(F)c4)c3c2)nc1 (mixture of isomers) [Example 4, racemic cis-2-{1-(4-Bromo-3-fluorobenzyl)-6-[(5-methylpyridin-2-yl)methoxy]-1H-benzimidazol-2-yl}cyclohexanecarboxylic acid as the TFA salt]	2.5 nM
Cc1ccc(COc2ccc3nc([C@H]4CCCC[C@H]4C(=O)O)n(Cc4ccc(Br)cc4F)c3c2)nc1 (stereo in doubt) [Example 12, (1S*,2R*)-2-{1-(4-Bromo-2-fluorobenzyl)-6-[(5-methylpyridin-2-yl)methoxy]-1H-benzimidazol-2-yl}cyclohexanecarboxylic acid]	~2000 nM
Cc1ccc(COc2ccc3nc([C@H]4CCCC[C@H]4C(=O)O)n(Cc4ccc(N5CCCCC5)cc4)c3c2)nc1 (stereo in doubt) [Example 158, (1R*,2S*)-2-{6-[(5-Methylpyridin-2-yl)methoxy]-1-(4-piperidin-1-ylbenzyl)-1H-benzimidazol-2-yl}cyclohexanecarboxylic acid]	270 nM
Cc1ccc(COc2ccc3nc([C@H]4CCCC[C@H]4C(=O)O)n(Cc4ccc(N5CC(F)(F)C5)cc4F)c3c2)nc1 (stereo in doubt) [Example 166, (1R*,2S*)-2-{1-[4-(3,3-Difluoroazetidin-1-yl)-2-fluorobenzyl]-6-[5-methylpyridin-2-yl)methoxy]-1H-benzimidazol-2-yl}cyclohexanecarboxylic acid]	370 nM
CCC(CC)(Cc1nc2ccc(OCc3ncc(C)cc3F)cc2n1Cc1ccc(C#N)cc1)C(=O)O [Example 135, 2-({1-(4-Cyanobenzyl)-6-[(3-fluoro-5-methylpyridin-2-yl)methoxy]-1H-benzimidazol-2-yl}methyl)-2-ethylbutanoic acid]	12 nM
Cc1ccc(COc2ccc3nc(CC4(C(=O)O)CCCC4)n(Cc4ccc(Br)cc4)c3c2)nc1 [Example 9, 1-({1-(4-Bromobenzyl)-6-[(5-methylpyridin-2-yl)methoxy]-1H-benzimidazol-2-yl}methyl)cyclopentanecarboxylic acid as the TFA salt]	18 nM
Cc1ccc(COc2cc(F)c3nc([C@H]4CCCC[C@@H]4C(=O)O)n(Cc4ccc(Br)cc4)c3c2)nc1 (racemic) [Example 62, racemic trans-2-{1-(4-Bromobenzyl)-4-fluoro-6-[(5-methylpyridin-2-yl)methoxy]-1H-benzimidazol-2-yl}cyclohexanecarboxylic acid]	8.1 nM
Cc1ccc(COc2ccc3nc([C@@H]4[C@H](C(=O)O)C4(C)C)n(Cc4ccc(Br)cc4F)c3c2)nc1 (stereo in doubt) [Example 17, (1R*,3S*)-3-{1-(4-Bromo-2-fluorobenzyl)-6-[(5-methylpyridin-2-yl)methoxy]-1H-benzimidazol-2-yl}-2,2-dimethylcyclopropanecarboxylic acid]	> 10000 nM
CCC(CC)(Cc1nc2ccc(OCc3ccn(C)n3)cc2n1Cc1ccc(Br)cc1F)C(=O)O [Example 58, 2-({1-(4-Bromo-2-fluorobenzyl)-6-[(1-methyl-1H-pyrazol-3-yl)methoxy]-1H-benzimidazol-2-yl}methyl)-2-ethylbutanoic acid]	58 nM
Cc1ccc(Cn2c([C@H]3CCCC[C@@H]3C(=O)O)nc3ccc(OCc4ccc(C)cn4)cc32)cc1 (racemic) [Example 120, racemic trans-2-{1-(4-Methylbenzyl)-6-[(5-methylpyridin-2-yl)methoxy]-1H-benzimidazol-2-yl}cyclohexanecarboxylic acid]	13 nM
Cc1ccc(COc2ccc3nc([C@H]4CCCC[C@H]4C(=O)O)n(Cc4ccc(Br)cc4)c3c2)nc1 (single isomer, unassigned) [Example 3]	~830 nM
